Laboratory results published in PubChem BioAssay (NCI).
Only a part is listed here, and it is no random draw.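 Cells were grown in 96-well plates and exposed to the test compound at a single concentration for 48 hours; results are reported as percent growth, with values below 10 considered active.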 Active and inactive are the calls of the source.

Experiments:
Assay in all cases: NCI-60 one-dose screen, 48 h (100 = growth as untreated, 0 = no growth, -100 = all killed)
HCT-15 colon = conditions: 10 µM unless noted
SNB-75 CNS = conditions: 10 µM unless noted
SNB-19 CNS = conditions: 10 µM unless noted
U251 CNS = conditions: 10 µM unless noted
PC-3 prostate = conditions: 10 µM unless noted
SK-MEL-5 melanoma = conditions: 10 µM unless noted
UACC-62 melanoma = conditions: 10 µM unless noted
LOX IMVI melanoma = conditions: 10 µM
SK-MEL-28 melanoma = conditions: 10 µM unless noted
EKVX NSCLC = conditions: 10 µM unless noted
SN12C renal = conditions: 10 µM unless noted
UO-31 renal = conditions: 10 µM unless noted
TK-10 renal = conditions: 10 µM unless noted
ACHN renal = conditions: 10 µM unless noted
CAKI-1 renal = conditions: 10 µM unless noted
A498 renal = conditions: 10 µM unless noted
HL-60(TB) leukemia = conditions: 10 µM unless noted
CCRF-CEM leukemia = conditions: 10 µM unless noted
HT29 colon = conditions: 10 µM unless noted
SK-MEL-2 melanoma = conditions: 10 µM unless noted

SMILES	growth (HCT-15 colon)	growth (SNB-75 CNS)	growth (SNB-19 CNS)	growth (U251 CNS)	growth (PC-3 prostate)	growth (SK-MEL-5 melanoma)	growth (UACC-62 melanoma)	growth (LOX IMVI melanoma)	growth (SK-MEL-28 melanoma)	growth (EKVX NSCLC)	growth (SN12C renal)	growth (UO-31 renal)	growth (TK-10 renal)	growth (ACHN renal)	growth (CAKI-1 renal)	growth (A498 renal)	growth (HL-60(TB) leukemia)	growth (CCRF-CEM leukemia)	growth (HT29 colon)	growth (SK-MEL-2 melanoma)
CC1(C)NC(C)(C)C(Br)C(=O)C1Br (stereo not given)	inactive: 111%	inactive: 106%	inactive: 104%	inactive: 106%	inactive: 99.2%	inactive: 109%	inactive: 115%	inactive: 95.8%	inactive: 115%	inactive: 111%	inactive: 114%	inactive: 105%	inactive: 114%	inactive: 113%	inactive: 98.2%	inactive: 132%	inactive: 61.4%	inactive: 110%		
NCCc1ccc(N(CCCl)CCCl)cc1	inactive: 78.2%	inactive: 64.3%	inactive: 77.8%		inactive: 79.1%	inactive: 85.8%	inactive: 64.1%	inactive: 43.8%	inactive: 86.4%		inactive: 39.3%	inactive: 51.7%	inactive: 94.7%	inactive: 19.7%	active: -13%	inactive: 94.2%	inactive: 15.9%	inactive: 21.6%	inactive: 66.5%	inactive: 112%
ClCCNCc1cccc(Cl)c1	inactive: 96.4%	inactive: 84.4%		inactive: 93.1%	inactive: 89.1%	inactive: 102%	inactive: 114%	inactive: 97.8%	inactive: 97.1%		inactive: 104%	inactive: 91.8%	inactive: 123%	inactive: 102%	inactive: 98.5%	inactive: 94.2%	inactive: 93.1%	inactive: 87.4%	inactive: 103%	inactive: 125%
O=[As](O)(O)c1cccnc1	inactive: 95.5%	inactive: 90.8%		inactive: 99.1%		inactive: 103%	inactive: 106%	inactive: 102%	inactive: 25.4%	inactive: 114%	inactive: 104%	inactive: 90.7%	inactive: 118%	inactive: 99.4%	inactive: 77.5%	inactive: 97.9%	inactive: 106%	inactive: 90.2%	inactive: 115%	
ClP1Nc2cncnc2N1 (stereo not given)	inactive: 105%	inactive: 117%	inactive: 98%	inactive: 113%		inactive: 101%	inactive: 101%		inactive: 122%		inactive: 101%	inactive: 83.4%	inactive: 98.7%	inactive: 110%	inactive: 92.3%	inactive: 135%	inactive: 98.7%	inactive: 104%	inactive: 118%	inactive: 122%
S=P1(S)SC(Nc2ccccc2)CN1c1ccccc1 (stereo not given)	inactive: 107%	inactive: 78.7%	inactive: 99.1%		inactive: 98.1%	inactive: 102%	inactive: 95.8%	inactive: 94.8%	inactive: 113%	inactive: 94.5%	inactive: 99.1%	inactive: 66.3%	inactive: 117%	inactive: 98.2%	inactive: 78.8%	inactive: 94.3%	inactive: 101%	inactive: 100%	inactive: 112%	inactive: 96.3%
Nc1cccc2ccc([As](=O)(O)O)cc12	inactive: 102%	inactive: 67.2%	inactive: 98.9%	inactive: 94.8%		inactive: 93.4%	inactive: 104%	inactive: 102%	inactive: 111%	inactive: 108%	inactive: 108%	inactive: 90.7%	inactive: 103%	inactive: 99.6%	inactive: 93.7%		inactive: 124%	inactive: 101%	inactive: 98.5%	inactive: 112%
O=C(O)CNc1ccc([As](=O)(O)O)cc1	inactive: 105%	inactive: 83.4%		inactive: 98.2%		inactive: 101%	inactive: 95.5%	inactive: 101%	inactive: 108%	inactive: 103%	inactive: 97.4%	inactive: 91.2%	inactive: 98.8%	inactive: 97.9%	inactive: 81.6%	inactive: 89.6%	inactive: 88.3%	inactive: 100%	inactive: 103%	
COc1cc(I)ccc1[As](=O)(O)O	inactive: 92.7%	inactive: 103%		inactive: 91.5%		inactive: 103%	inactive: 95.6%	inactive: 94%	inactive: 195%	inactive: 112%	inactive: 97%	inactive: 101%	inactive: 127%	inactive: 101%		inactive: 96.8%	inactive: 81.4%	inactive: 87.3%	inactive: 103%	
O=[As]1(O)c2ccccc2-c2ccccc21	inactive: 117%	inactive: 84.2%	inactive: 95.7%	inactive: 102%		inactive: 99.9%	inactive: 93.1%	inactive: 104%	inactive: 113%	inactive: 104%	inactive: 96.1%	inactive: 99.2%	inactive: 112%	inactive: 110%	inactive: 91.4%		inactive: 89.6%	inactive: 72%	inactive: 112%	inactive: 126%
CN1C(=O)N(C)P12(Cl)N(C)C(=O)N2C	inactive: 105%		inactive: 101%	inactive: 101%	inactive: 99.6%	inactive: 101%	inactive: 100%	inactive: 101%	inactive: 120%	inactive: 102%	inactive: 99%	inactive: 107%	inactive: 103%	inactive: 114%	inactive: 99.5%	inactive: 90%	inactive: 100%	inactive: 102%	inactive: 110%	inactive: 108%
O=C1OCCN1P(=O)(Cl)N1CCOC1=O	inactive: 99.4%	inactive: 99.3%	inactive: 98.8%	inactive: 94%	inactive: 101%	inactive: 109%	inactive: 101%	inactive: 85.3%	inactive: 101%	inactive: 98.3%	inactive: 99.3%	inactive: 91%	inactive: 112%	inactive: 108%	inactive: 98%	inactive: 103%	inactive: 97.4%	inactive: 94%		
O=[N+]([O-])c1cccc(Oc2ccc([N+](=O)[O-])cc2[N+](=O)[O-])c1	inactive: 12.5%		inactive: 57.8%	inactive: 25.3%	inactive: 25.9%	inactive: 23%	inactive: 31.1%	active: 7.73%	inactive: 35.3%	inactive: 107%	inactive: 23.1%	inactive: 20.1%	inactive: 49.9%	inactive: 25.7%	active: -3.1%	inactive: 105%	active: -10.2%		active: -33.1%	active: -2.18%
O=[N+]([O-])c1ccc(SSc2ccc([N+](=O)[O-])cc2[N+](=O)[O-])c([N+](=O)[O-])c1		inactive: 82.2%	inactive: 102%	inactive: 102%	inactive: 92.6%	inactive: 103%		inactive: 80.3%	inactive: 114%		inactive: 101%	inactive: 75.9%			inactive: 86.1%	inactive: 95.5%		inactive: 29.7%	inactive: 105%	inactive: 104%
CCOC(=O)c1sc2ncnc(NCCCl)c2c1C	inactive: 102%		inactive: 94.8%	inactive: 93.3%	inactive: 84.4%	inactive: 97.3%	inactive: 93.5%	inactive: 92%	inactive: 118%		inactive: 95.4%	inactive: 82.3%	inactive: 131%	inactive: 95%	inactive: 87.1%	inactive: 86.3%	inactive: 82.4%	inactive: 92.1%	inactive: 108%	inactive: 122%
ClP1(Cl)=NP(Cl)(Cl)=NP(c2ccccc2)(c2ccccc2)=N1	inactive: 106%	inactive: 91.5%	inactive: 114%	inactive: 99%		inactive: 101%	inactive: 101%	inactive: 100%	inactive: 107%	inactive: 102%	inactive: 105%	inactive: 85.3%	inactive: 83.8%			inactive: 95.9%	inactive: 84.6%		inactive: 84.4%	inactive: 100%
O=C(CBr)c1ccc([N+](=O)[O-])cc1	inactive: 113%		inactive: 95.1%	inactive: 102%	inactive: 75.6%	inactive: 110%	inactive: 98.1%	inactive: 109%	inactive: 90.9%	inactive: 111%	inactive: 95.7%	inactive: 65.1%	inactive: 83%	inactive: 105%	inactive: 102%	inactive: 96.3%	inactive: 85.4%	inactive: 92.6%	inactive: 92.7%	inactive: 108%
OC(CNCCCl)C(O)C(O)C(O)CNCCCl (stereo not given)	inactive: 98%	inactive: 90.2%	inactive: 104%		inactive: 94.1%		inactive: 99.3%	inactive: 91.2%	inactive: 108%		inactive: 98.3%	inactive: 97.5%	inactive: 98.1%	inactive: 93.3%	inactive: 110%	inactive: 104%	inactive: 92.5%	inactive: 88.1%	inactive: 101%	inactive: 105%
